# Data from patent US6660846B1, “Vesicular amino acid transporter composition and method” (The Regents of the University of CA, priority 1997, dated 2003).
# Target: T1, rVGAT (RUNC-47, rat unc-47 homologue) (Rattus norvegicus, UniProt O35458)
# T1 construct: expressed in transfected cells
# T1 sequence (O35458 1-525): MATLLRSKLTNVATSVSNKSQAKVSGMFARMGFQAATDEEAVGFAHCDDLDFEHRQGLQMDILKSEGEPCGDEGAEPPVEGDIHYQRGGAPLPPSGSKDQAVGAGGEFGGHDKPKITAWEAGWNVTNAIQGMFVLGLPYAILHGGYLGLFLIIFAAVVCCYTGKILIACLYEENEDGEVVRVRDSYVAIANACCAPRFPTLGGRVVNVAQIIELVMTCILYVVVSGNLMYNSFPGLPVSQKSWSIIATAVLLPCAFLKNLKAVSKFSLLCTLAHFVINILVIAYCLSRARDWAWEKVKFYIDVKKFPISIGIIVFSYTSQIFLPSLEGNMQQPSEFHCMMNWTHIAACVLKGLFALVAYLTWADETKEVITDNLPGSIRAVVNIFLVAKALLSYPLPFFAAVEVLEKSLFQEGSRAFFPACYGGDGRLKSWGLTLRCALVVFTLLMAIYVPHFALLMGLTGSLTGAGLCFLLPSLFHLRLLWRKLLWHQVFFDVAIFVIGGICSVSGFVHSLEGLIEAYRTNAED
# Test: 3H-GABA transport assay in vesicles from PC12 cells stably expressing rVGAT (RUNC-47)
# Assay type: biochemical
# Procedure: Stable PC12 transformants expressing high levels of the putative transport protein were isolated by screening cell clones with fluorescent-tagged antibodies generated against the rat unc-47 homologue RUNC-47. […] A population of light vesicles was then isolated from two stable transformants and purified by differential centrifugation (Example 7).
# Hereafter, the terms RUNC-47 and rVGAT are used interchangeably.
# These studies were carried out in the transport assay detailed in Example 8, using synaptic vesicles prepared from transfected PC-12 cells, as described above and detailed in Example 7.
# Briefly, vesicles were prepared from PC12 cell clone B1 stably expressing rVGAT and from un-transfected cells.
# The rat unc-47 homologue cDNA subcloned into the plasmid expression vector pcDNA3-Amp (InVitrogen; Carlsbad, Calif.) was introduced into PC12 cells by electroporation (Grote, et al., Cell 81, 581-589, 1995). […]
# Incubation was performed at 29° C. for varying intervals and the reaction was terminated by rapid filtration (Supor 200, Gelman; AnnArbor, Mich.), followed by immediate washing with 6 ml cold 0.15 M KCl. Background uptake was determined by incubation at 4° C. for 0 minutes. The bound radioactivity was measured by scintillation counting in 2.5 ml Cytoscint (ICN). […]
smiles,measurement,value
O=C(O)C1CCCNC1 (centres unmarked) [nipecotic acid],IC50,46 mM
same,"Inhibition of rVGAT activity (3H-GABA transport), in words",inhibits rVGAT activity only weakly
